Earlier results as cited in US9745567B2, “Compositions and methods for treating multiple sclerosis” (REVALESIO CORPORATION, priority 2008, dated 2017).

Tested on: multiple sclerosis
Conditions: human, in vivo

B1: interferon-β: naturally occurring protein produced by fibroblasts; drug for MS (protein, UniProt P01574 22-187, looked up)
Interferon beta: MSYNLLGFLQRSSNFQCQKLLWQLNGRLEYCLKDRMNFDIPEEIKQLQQFQKEDAALTIYEMLQNIFAIFRQDSSSTGWNETIVENLLANVYHQINHLKTVLEEKLEKEDFTRGKLMSSLHLKRYYGRILHYLKAKEYSHCAWTIVRVEILRNFYFINRLTGYLRN
effectiveness in reducing the rate of MS episodes: 18-38%
